OPERA 2.9 data: intrinsic clearance values

Values as listed in the OPERA 2.9 repository of K. Mansouri.

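The numbers are reported measurements, compiled and curated for the OPERA QSAR suite. A listed value is a point estimate from one report or more. How each value was measured is not recorded, so precision varies. A value may pool stereoisomers or salt forms, and the file does not say which form was measured. Some entries may be limits or estimates that an upstream database listed as plain numbers.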

Clint is human hepatic intrinsic clearance in µL/min per million cells; 0 means that no clearance was seen.

compound,hepatic Clint (µL/min/10^6 cells)
CC(C)(C)c1ccc(CSc2cnn(C(C)(C)C)c(=O)c2Cl)cc1,63.93
Cc1nc(N(C)C)nc(OC(=O)N(C)C)c1C,22.53
CS(=O)(=O)c1cc(C(F)(F)F)ccc1C(=O)c1cnoc1C1CC1,20.42
COc1cc(-c2ccc(N)c(OC)c2)ccc1N.Cl.Cl,7.635
c1ccc(NNc2ccccc2)cc1,19
COc1ccc(C(c2ccc(OC)cc2)C(Cl)(Cl)Cl)cc1,12.5
O=C(Nc1ccccc1-c1ccc(Cl)cc1)c1cccnc1Cl,17.28
c1ccc2c(c1)Nc1ccccc1S2,0
COc1nc(C)nc(NC(=O)NS(=O)(=O)c2ccccc2CCC(F)(F)F)n1,10.37
CN1C(=O)CC(=O)N(c2ccccc2)c2cc(Cl)ccc21,27
CSc1nnc(C(C)(C)C)c(=O)n1N,1.07
COP(=S)(OC)Oc1ccc(SC)c(C)c1,87.2
CCCCC(CC)COC(=O)c1ccccc1C(=O)OCC(CC)CCCC (stereo unspecified),2.65
Cc1cc(Cl)ccc1N,8.06
CCOP(=S)(Oc1cnc(C(C)(C)C)nc1)OC(C)C (stereo unspecified),22.64
CCCCN(CCCC)SN(C)C(=O)Oc1cccc2c1OC(C)(C)C2,26.74
O=P(OC(CCl)CCl)(OC(CCl)CCl)OC(CCl)CCl,5.092
C=CCOC(=O)c1ccccc1C(=O)OCC=C,8.216
CNC(=O)Oc1ccc2c(c1)[C@]1(C)CCN(C)[C@@H]1N2C,1.64
CCC(C)c1ccc(O)cc1 (stereo unspecified),19.03
C=C(C)[C@H]1Cc2c(ccc3c2O[C@@H]2COc4cc(OC)c(OC)cc4[C@@H]2C3=O)O1,20.92
Cl.Nc1ccccc1,4.41
CCOC(=O)CC(SP(=O)(OC)OC)C(=O)OCC (stereo unspecified),55.9
CCN(CC)c1nc(C)cc(OP(=S)(OC)OC)n1,49.7
CCCCOC(=O)c1ccccc1C(=O)OCc1ccccc1,427
Cn1cc(-c2ccccc2)c(=O)c(-c2cccc(C(F)(F)F)c2)c1,5.594
CC(=O)C[C@@H](c1ccccc1)C1C(=O)Oc2ccccc2C1O (stereo not given in full),0
C=CC=C,4.733
CCCCC(CC)COC(=O)c1ccccc1C(=O)O (stereo unspecified),0
Clc1ccc(-c2ccc(Cl)c(Cl)c2)cc1Cl,0
CCC(C)(C)C(=O)OC1=C(c2ccc(Cl)cc2Cl)C(=O)OC12CCCCC2,44.6
CCN(CC)C(=O)SCc1ccc(Cl)cc1,233
COc1cc2c(c3oc(=O)c4c(c13)CCC4=O)[C@@H]1C=CO[C@@H]1O2,3.49
Cc1ccc(N)cc1Cl,65.3
S=c1[nH]c2ccccc2[nH]1,0
CC(C)Oc1cccc(NC(=O)c2ccccc2C(F)(F)F)c1,14.17
CC1=C(C(=O)Nc2ccccc2)SCCO1,24.41
O=S(=O)(O)C(F)(F)C(F)(F)C(F)(F)C(F)(F)F,1.152
Nc1cc(Cl)cc(C(=O)O)c1Cl,0
O=C(O)C(F)(F)C(F)(F)C(F)(F)C(F)(F)C(F)(F)C(F)(F)C(F)(F)C(F)(F)C(F)(F)F,0
CCN(CC)C(=O)C(C)Oc1cccc2ccccc12 (stereo unspecified),15.15
CC1(C)CCC(=Cc2ccc(Cl)cc2)C1(O)Cn1cncn1 (stereo unspecified),6.12
Nc1ccc(-c2ccc(N)cc2)cc1,6.91
COc1cc(Cl)c(OC)cc1Cl,6.31

Extract of 6 entries:

compound,hepatic Clint (µL/min/10^6 cells)
CC1=C(C(=O)Nc2ccccc2)SCCO1,24.41
CC(C)Oc1cccc(NC(=O)c2ccccc2C(F)(F)F)c1,14.17
COc1cc(-c2ccc(N)c(OC)c2)ccc1N.Cl.Cl,7.635
CNC(=O)Oc1ccc2c(c1)[C@]1(C)CCN(C)[C@@H]1N2C,1.64
COP(=S)(OC)Oc1ccc(SC)c(C)c1,87.2
C=C(C)[C@H]1Cc2c(ccc3c2O[C@@H]2COc4cc(OC)c(OC)cc4[C@@H]2C3=O)O1,20.92